# From ChEMBL document CHEMBL2218924, “A broad activity screen in support of a chemogenomic map for kinase signalling research and drug discovery” (Biochem J, 2013)
# Chains of the proteins cited; added tags and fusions are not shown. Lines headed by an entry give the natural chain unless they say otherwise; changes in a name come on top.
# UniProt P22607, whole entry, looked up: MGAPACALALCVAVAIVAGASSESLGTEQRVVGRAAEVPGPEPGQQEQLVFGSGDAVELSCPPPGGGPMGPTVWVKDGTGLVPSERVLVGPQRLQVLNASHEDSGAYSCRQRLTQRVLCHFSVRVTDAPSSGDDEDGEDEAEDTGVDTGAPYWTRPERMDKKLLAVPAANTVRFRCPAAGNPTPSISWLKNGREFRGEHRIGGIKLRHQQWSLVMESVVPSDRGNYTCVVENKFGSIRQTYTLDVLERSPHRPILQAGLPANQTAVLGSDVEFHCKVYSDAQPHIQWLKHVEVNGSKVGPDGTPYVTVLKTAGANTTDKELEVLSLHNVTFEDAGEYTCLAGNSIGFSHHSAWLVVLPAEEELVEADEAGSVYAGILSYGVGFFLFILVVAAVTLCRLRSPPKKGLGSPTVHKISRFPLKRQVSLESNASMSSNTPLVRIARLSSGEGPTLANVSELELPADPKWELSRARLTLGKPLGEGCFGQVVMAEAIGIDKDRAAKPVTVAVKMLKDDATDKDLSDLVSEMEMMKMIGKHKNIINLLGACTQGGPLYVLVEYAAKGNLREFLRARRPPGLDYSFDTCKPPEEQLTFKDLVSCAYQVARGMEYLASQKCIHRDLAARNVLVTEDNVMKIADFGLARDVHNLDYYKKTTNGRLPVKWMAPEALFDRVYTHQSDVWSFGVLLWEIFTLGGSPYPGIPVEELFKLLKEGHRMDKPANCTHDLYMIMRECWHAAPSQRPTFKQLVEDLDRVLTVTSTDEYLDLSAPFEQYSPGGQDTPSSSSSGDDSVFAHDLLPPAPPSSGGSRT
# UniProt P07332: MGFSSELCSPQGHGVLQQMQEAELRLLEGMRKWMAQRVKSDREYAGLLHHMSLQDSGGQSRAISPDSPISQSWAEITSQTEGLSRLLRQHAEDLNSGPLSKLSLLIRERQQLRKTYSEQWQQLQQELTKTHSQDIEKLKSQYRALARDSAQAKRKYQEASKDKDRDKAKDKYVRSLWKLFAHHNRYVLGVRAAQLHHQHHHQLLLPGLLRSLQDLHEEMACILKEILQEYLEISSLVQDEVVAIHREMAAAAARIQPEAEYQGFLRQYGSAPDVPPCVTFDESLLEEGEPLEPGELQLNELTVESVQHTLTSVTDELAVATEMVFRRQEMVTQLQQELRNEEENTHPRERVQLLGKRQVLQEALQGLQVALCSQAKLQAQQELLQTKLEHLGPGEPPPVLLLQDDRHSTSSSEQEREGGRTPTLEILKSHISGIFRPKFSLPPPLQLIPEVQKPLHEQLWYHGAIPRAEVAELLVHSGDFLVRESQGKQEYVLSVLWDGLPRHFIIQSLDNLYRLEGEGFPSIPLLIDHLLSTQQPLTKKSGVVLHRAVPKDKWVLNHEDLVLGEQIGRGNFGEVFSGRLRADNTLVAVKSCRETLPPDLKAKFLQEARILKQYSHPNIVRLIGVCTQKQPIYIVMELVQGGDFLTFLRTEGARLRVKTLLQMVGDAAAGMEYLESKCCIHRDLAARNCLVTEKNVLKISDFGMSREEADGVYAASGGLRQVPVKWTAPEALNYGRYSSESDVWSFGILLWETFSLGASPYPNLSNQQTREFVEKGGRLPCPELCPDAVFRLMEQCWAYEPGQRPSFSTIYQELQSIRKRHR
# UniProt Q96BR1: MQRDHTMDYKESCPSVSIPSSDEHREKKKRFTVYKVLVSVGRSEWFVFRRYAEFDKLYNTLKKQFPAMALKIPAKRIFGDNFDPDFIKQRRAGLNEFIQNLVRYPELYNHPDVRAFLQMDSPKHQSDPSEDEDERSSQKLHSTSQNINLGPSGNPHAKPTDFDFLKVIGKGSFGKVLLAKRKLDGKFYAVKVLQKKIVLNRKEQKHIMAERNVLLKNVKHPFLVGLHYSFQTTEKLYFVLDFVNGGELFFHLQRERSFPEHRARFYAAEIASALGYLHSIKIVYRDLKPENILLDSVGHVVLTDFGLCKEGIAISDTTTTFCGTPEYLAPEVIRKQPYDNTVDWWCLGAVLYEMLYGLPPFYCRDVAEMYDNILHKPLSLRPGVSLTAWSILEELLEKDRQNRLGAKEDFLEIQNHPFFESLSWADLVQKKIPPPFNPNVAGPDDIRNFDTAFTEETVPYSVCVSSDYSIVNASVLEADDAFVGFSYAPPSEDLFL
# UniProt Q9NYY3: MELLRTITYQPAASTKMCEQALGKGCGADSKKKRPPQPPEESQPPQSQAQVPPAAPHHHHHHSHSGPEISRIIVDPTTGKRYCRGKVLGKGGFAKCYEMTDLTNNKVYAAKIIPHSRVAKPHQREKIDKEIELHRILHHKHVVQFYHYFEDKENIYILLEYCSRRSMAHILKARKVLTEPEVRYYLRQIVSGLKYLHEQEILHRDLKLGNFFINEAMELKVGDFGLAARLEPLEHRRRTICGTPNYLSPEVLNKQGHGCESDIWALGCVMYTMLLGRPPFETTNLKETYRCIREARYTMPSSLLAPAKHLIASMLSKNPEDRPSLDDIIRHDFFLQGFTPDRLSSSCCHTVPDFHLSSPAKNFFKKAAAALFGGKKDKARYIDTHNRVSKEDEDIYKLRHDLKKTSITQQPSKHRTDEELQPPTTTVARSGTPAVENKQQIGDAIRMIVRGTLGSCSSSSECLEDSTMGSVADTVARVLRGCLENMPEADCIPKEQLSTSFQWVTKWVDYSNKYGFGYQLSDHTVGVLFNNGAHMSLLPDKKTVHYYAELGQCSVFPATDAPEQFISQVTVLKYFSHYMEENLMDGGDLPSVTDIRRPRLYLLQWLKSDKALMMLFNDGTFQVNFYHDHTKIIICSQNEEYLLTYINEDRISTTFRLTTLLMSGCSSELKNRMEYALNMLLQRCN
# UniProt P52564: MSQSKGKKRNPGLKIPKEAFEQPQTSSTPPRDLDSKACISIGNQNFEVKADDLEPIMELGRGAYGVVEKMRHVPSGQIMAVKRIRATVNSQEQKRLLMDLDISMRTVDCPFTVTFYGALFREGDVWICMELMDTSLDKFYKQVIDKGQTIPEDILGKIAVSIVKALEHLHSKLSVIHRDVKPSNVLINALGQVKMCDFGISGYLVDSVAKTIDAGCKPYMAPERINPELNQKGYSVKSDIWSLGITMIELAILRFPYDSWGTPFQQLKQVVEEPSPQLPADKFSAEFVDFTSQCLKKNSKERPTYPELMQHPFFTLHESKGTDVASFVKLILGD
# UniProt O96020, whole entry, looked up: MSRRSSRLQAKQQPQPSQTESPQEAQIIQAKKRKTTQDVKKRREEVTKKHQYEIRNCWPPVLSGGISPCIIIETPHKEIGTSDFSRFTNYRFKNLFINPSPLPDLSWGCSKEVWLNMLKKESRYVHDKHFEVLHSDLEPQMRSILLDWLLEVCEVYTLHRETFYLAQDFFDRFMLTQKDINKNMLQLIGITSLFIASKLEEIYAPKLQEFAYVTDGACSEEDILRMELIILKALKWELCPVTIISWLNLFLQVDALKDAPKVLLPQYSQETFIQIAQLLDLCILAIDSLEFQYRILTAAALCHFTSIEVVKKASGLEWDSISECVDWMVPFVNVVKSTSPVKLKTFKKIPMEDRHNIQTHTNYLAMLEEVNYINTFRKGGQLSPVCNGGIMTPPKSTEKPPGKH
# UniProt Q99683: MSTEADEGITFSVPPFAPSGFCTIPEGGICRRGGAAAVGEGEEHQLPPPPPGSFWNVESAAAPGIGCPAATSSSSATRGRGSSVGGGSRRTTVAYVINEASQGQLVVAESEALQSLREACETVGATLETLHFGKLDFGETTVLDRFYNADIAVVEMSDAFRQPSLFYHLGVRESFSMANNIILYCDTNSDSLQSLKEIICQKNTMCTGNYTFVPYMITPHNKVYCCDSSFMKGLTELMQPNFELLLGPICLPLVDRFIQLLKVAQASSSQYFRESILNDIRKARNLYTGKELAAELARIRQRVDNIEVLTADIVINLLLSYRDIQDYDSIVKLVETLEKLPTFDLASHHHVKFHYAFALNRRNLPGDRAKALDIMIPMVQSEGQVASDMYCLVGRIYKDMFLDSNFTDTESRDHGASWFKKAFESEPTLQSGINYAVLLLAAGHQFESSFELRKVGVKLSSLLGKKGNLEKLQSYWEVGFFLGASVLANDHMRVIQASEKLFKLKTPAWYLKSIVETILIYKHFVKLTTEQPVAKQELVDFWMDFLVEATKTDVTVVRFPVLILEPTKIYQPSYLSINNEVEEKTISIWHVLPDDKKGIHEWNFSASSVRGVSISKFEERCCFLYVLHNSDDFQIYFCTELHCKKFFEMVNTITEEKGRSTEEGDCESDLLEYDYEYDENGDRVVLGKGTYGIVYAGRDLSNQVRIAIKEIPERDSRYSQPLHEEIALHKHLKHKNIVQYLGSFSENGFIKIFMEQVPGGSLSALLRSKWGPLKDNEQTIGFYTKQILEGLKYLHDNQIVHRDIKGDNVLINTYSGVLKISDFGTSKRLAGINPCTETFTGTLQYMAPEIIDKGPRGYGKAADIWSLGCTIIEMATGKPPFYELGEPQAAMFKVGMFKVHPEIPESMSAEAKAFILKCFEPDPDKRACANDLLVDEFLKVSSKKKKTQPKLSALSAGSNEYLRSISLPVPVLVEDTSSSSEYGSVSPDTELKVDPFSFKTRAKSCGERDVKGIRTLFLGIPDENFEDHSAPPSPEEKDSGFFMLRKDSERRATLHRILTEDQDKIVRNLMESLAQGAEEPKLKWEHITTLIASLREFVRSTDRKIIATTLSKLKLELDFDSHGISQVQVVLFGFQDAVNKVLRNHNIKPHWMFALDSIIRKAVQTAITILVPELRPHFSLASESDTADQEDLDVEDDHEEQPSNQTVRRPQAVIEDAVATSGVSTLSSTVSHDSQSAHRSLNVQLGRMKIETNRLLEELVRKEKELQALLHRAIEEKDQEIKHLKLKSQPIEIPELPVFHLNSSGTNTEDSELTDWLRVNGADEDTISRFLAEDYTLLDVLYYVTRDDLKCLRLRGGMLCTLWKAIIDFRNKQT
# UniProt P19784, whole entry, looked up: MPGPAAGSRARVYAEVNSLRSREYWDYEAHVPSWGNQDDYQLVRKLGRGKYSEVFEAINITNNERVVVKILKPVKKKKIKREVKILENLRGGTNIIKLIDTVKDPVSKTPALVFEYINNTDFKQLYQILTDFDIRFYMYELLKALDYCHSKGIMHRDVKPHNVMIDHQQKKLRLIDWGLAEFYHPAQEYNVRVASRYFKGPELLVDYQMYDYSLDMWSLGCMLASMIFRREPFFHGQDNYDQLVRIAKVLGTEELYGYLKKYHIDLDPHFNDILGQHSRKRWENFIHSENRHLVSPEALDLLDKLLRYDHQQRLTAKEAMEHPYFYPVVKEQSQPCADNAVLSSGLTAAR
# UniProt O15264: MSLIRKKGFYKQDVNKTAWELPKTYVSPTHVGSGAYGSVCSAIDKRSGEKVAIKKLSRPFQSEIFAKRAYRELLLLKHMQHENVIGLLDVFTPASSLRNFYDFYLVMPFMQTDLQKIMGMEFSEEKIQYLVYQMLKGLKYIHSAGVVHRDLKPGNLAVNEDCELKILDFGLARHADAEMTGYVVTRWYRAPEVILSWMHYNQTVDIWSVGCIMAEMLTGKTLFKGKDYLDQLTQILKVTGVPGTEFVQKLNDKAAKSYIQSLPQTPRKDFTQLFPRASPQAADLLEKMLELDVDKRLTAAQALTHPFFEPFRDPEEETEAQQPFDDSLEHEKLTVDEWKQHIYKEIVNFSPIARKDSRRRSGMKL
# UniProt Q02156: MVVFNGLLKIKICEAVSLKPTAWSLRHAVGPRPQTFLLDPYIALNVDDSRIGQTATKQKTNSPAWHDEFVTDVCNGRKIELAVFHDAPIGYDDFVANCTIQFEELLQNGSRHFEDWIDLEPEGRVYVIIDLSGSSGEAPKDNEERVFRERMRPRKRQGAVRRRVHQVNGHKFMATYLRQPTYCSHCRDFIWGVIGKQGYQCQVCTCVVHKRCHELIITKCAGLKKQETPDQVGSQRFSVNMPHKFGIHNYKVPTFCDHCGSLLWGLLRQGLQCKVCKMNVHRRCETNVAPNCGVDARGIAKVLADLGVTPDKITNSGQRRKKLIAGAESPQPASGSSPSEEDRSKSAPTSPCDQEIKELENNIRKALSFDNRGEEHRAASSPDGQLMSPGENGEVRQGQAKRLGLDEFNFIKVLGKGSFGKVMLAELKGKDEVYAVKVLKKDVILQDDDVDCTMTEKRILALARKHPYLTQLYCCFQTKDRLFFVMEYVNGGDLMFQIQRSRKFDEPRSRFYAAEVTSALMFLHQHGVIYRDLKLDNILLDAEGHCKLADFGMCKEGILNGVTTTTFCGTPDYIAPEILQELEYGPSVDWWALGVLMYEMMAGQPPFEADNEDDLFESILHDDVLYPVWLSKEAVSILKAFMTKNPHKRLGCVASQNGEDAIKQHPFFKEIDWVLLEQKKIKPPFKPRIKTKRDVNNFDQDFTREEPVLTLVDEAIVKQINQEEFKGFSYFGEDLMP
# For part of these data: What follows is the remainder of the data, with few or none of the strong results. The entries are a selection whose mix differs from that of the whole data set.
# Tests used:
# [1] = molecular target: Epidermal growth factor receptor (Homo sapiens) (UniProt P00533); conditions: at 1 µM
# [2] = molecular target: Tyrosine-protein kinase BTK (Homo sapiens) (UniProt Q06187); conditions: at 1 µM
# [3] = molecular target: Epidermal growth factor receptor (Homo sapiens) (UniProt P00533); conditions: at 10 µM
# [4] = molecular target: Ephrin type-A receptor 2 (Homo sapiens) (UniProt P29317); conditions: at 1 µM
# [5] = molecular target: Ephrin type-B receptor 1 (Homo sapiens) (UniProt P54762); conditions: at 10 µM
# [6] = molecular target: Ephrin type-B receptor 2 (Homo sapiens) (UniProt P29323); conditions: at 1 µM
# [7] = molecular target: Fibroblast growth factor receptor 3 (Homo sapiens) (UniProt P22607); conditions: at 10 µM
# [8] = molecular target: Tyrosine-protein kinase Fes/Fps (Homo sapiens) (UniProt P07332); conditions: at 10 µM
# [9] = molecular target: Homeodomain-interacting protein kinase 3 (Homo sapiens) (UniProt Q9H422); conditions: at 1 µM
# [10] = molecular target: T1, Protein kinase C iota type (Homo sapiens) (UniProt P41743); conditions: at 10 µM
# T1 sequence (whole entry): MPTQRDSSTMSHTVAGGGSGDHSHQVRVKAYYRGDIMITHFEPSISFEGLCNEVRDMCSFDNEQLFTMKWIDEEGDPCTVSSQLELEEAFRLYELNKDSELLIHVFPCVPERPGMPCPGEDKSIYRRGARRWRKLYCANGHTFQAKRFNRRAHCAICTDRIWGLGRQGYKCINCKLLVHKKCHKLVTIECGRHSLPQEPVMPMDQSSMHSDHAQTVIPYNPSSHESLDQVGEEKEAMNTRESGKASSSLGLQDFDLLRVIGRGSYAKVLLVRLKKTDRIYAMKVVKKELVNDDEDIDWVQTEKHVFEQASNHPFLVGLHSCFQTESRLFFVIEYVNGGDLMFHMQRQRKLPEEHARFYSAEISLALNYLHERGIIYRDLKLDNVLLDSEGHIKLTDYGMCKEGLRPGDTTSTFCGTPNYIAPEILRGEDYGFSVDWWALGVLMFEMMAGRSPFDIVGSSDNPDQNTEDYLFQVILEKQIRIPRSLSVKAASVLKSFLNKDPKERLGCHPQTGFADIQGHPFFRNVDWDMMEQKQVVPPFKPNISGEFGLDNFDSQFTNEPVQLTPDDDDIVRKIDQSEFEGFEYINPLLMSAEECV
# [11] = molecular target: T2, cGMP-dependent protein kinase 1 (Homo sapiens) (UniProt Q13976); conditions: at 1 µM
# T2 sequence (whole entry): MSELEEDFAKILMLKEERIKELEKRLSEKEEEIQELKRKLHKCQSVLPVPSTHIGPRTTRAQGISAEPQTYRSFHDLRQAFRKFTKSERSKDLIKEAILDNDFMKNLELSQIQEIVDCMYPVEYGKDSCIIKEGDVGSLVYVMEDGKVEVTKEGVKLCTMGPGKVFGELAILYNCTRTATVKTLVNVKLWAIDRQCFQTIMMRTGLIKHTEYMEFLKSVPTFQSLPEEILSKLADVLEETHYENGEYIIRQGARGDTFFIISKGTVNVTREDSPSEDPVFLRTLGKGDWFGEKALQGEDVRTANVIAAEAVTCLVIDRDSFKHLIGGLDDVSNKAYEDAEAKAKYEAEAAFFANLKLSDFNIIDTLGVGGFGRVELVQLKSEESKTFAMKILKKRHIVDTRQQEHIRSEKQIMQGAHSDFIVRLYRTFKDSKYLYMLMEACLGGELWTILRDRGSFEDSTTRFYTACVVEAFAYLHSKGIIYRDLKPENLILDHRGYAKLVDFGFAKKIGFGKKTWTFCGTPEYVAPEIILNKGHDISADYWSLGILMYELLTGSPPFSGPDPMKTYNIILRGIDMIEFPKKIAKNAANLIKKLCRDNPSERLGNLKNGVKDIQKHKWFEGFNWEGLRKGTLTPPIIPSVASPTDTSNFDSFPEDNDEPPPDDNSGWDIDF
# [12] = molecular target: Serine/threonine-protein kinase PLK3 (Homo sapiens) (UniProt Q9H4B4); conditions: at 1 µM
# [13] = molecular target: Tyrosine-protein kinase receptor TYRO3 (Homo sapiens) (UniProt Q06418); conditions: at 10 µM
# [14] = molecular target: Mitogen-activated protein kinase 12 (Homo sapiens) (UniProt P53778); conditions: at 1 µM
# [15] = molecular target: Serine/threonine-protein kinase Sgk3 (Homo sapiens) (UniProt Q96BR1); conditions: at 1 µM
# [16] = molecular target: Serine/threonine-protein kinase PLK2 (Homo sapiens) (UniProt Q9NYY3); conditions: at 1 µM;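 note: residual PLK2 kinase activity expressed as percent of uninhibited control, measured in MOPS buffer at pH 7.0 with EDTA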
# [17] = molecular target: Insulin-like growth factor 1 receptor (Homo sapiens) (UniProt P08069); conditions: at 10 µM
# [18] = molecular target: Serine/threonine-protein kinase WNK2 (Homo sapiens) (UniProt Q9Y3S1); conditions: at 1 µM;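 note: residual WNK2 kinase activity expressed as percent of uninhibited control, assayed in MOPS buffer at pH 7.0 containing EDTA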
# [19] = molecular target: T3, Eukaryotic elongation factor 2 kinase (Homo sapiens) (UniProt O00418); conditions: at 1 µM
# T3 sequence (whole entry): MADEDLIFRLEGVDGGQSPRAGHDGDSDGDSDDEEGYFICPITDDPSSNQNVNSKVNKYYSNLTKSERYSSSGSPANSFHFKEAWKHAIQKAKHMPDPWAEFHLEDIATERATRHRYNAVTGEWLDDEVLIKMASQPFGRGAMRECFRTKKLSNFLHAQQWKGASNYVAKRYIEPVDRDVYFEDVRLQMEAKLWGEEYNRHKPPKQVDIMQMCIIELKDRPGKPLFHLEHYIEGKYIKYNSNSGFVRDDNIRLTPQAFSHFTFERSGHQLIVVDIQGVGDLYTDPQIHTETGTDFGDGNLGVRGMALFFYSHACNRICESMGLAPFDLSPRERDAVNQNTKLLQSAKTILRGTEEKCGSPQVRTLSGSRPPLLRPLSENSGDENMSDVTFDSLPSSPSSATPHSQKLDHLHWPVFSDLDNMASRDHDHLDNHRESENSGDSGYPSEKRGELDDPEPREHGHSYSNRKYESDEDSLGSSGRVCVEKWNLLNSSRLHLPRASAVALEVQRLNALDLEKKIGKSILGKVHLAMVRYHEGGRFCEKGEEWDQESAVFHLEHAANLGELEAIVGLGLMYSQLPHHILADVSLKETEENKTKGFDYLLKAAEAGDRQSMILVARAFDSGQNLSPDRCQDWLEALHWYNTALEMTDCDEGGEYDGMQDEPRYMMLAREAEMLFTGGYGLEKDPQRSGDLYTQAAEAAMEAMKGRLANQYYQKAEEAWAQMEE
# [20] = molecular target: T3, Eukaryotic elongation factor 2 kinase (Homo sapiens); conditions: at 10 µM
# [21] = molecular target: Serine/threonine-protein kinase mTOR (Homo sapiens) (UniProt P42345); conditions: at 1 µM
# [22] = molecular target: Serine/threonine-protein kinase Nek6 (Homo sapiens) (UniProt Q9HC98); conditions: at 1 µM
# [23] = molecular target: Serine/threonine-protein kinase Nek7 (Homo sapiens) (UniProt Q8TDX7); conditions: at 1 µM
# [24] = molecular target: RAC-alpha serine/threonine-protein kinase (Homo sapiens) (UniProt P31749); conditions: at 1 µM
# [25] = molecular target: Protein kinase C alpha type (Homo sapiens) (UniProt P17252); conditions: at 1 µM
# [26] = molecular target: Ephrin type-A receptor 4 (Homo sapiens) (UniProt P54764); conditions: at 1 µM
# [27] = molecular target: Rho-associated protein kinase 1 (Homo sapiens) (UniProt Q13464); conditions: at 1 µM
# [28] = molecular target: Ribosomal protein S6 kinase alpha-1 (Homo sapiens) (UniProt Q15418); conditions: at 1 µM
# [29] = molecular target: Serine/threonine-protein kinase TAO2 (Homo sapiens) (UniProt Q9UL54); conditions: at 1 µM
# [30] = molecular target: Dual specificity mitogen-activated protein kinase kinase 6 (Homo sapiens) (UniProt P52564); conditions: at 1 µM
# [31] = molecular target: Hepatocyte growth factor receptor (Homo sapiens) (UniProt P08581); conditions: at 1 µM
# [32] = molecular target: Tyrosine-protein kinase Yes (Homo sapiens) (UniProt P07947); conditions: at 1 µM
# [33] = molecular target: Serine/threonine-protein kinase mTOR (Homo sapiens) (UniProt P42345); conditions: at 1 µM; remark: listed apart in the source
# [34] = molecular target: PAS domain-containing serine/threonine-protein kinase (Homo sapiens) (UniProt Q96RG2); conditions: at 1 µM
# [35] = molecular target: CDK3/cyclin E (Homo sapiens) (UniProt P24864+O96020+Q00526); conditions: at 1 µM
# [36] = molecular target: Mitogen-activated protein kinase kinase kinase 5 (Homo sapiens) (UniProt Q99683); conditions: at 10 µM
# [37] = molecular target: Casein kinase II subunit alpha' (Homo sapiens) (UniProt P19784); conditions: at 1 µM;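 note: residual kinase activity of CSNK2A2 expressed as percent of untreated control, so lower values mean stronger inhibition, with Jnk Inhibitor II at 100 µM as reference inhibitor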
# [38] = molecular target: Calcium/calmodulin-dependent protein kinase type 1 (Homo sapiens) (UniProt Q14012); conditions: at 1 µM
# [39] = molecular target: Ephrin type-B receptor 3 (Homo sapiens) (UniProt P54753); conditions: at 1 µM
# [40] = molecular target: Fibroblast growth factor receptor 4 (Homo sapiens) (UniProt P22455); conditions: at 1 µM
# [41] = molecular target: Tyrosine-protein kinase Fer (Homo sapiens) (UniProt P16591); conditions: at 1 µM
# [42] = molecular target: Protein kinase C eta type (Homo sapiens) (UniProt P24723); conditions: at 1 µM
# [43] = molecular target: T1, Protein kinase C iota type (Homo sapiens); conditions: at 1 µM
# [44] = molecular target: Serine/threonine-protein kinase D2 (Homo sapiens) (UniProt Q9BZL6); conditions: at 10 µM
# [45] = molecular target: Phosphorylase b kinase gamma catalytic chain, liver/testis isoform (Homo sapiens) (UniProt P15735); conditions: at 1 µM
# [46] = molecular target: Serine/threonine-protein kinase PLK1 (Homo sapiens) (UniProt P53350); conditions: at 1 µM
# [47] = molecular target: Mitogen-activated protein kinase 13 (Homo sapiens) (UniProt O15264); conditions: at 1 µM
# [48] = molecular target: Insulin receptor (Homo sapiens) (UniProt P06213); conditions: at 1 µM
# [49] = molecular target: Insulin receptor (Homo sapiens) (UniProt P06213); conditions: at 1 µM; remark: listed apart in the source
# [50] = molecular target: Mitogen-activated protein kinase 8 (Homo sapiens) (UniProt P45983); conditions: at 1 µM
# [51] = molecular target: MAP kinase-activated protein kinase 3 (Homo sapiens) (UniProt Q16644); conditions: at 1 µM
# [52] = molecular target: Dual specificity mitogen-activated protein kinase kinase 6 (Homo sapiens) (UniProt P52564); conditions: at 10 µM
# [53] = molecular target: Death-associated protein kinase 3 (Homo sapiens) (UniProt O43293); conditions: at 1 µM
# [54] = molecular target: Serine/threonine-protein kinase mTOR (Homo sapiens) (UniProt P42345); conditions: at 10 µM
# [55] = molecular target: Serine/threonine-protein kinase PAK 5 (Homo sapiens) (UniProt Q9P286); conditions: at 1 µM
# [56] = molecular target: Protein kinase C alpha type (Homo sapiens) (UniProt P17252); conditions: at 10 µM
# [57] = molecular target: Protein kinase C beta type (Homo sapiens) (UniProt P05771); conditions: at 1 µM
# [58] = molecular target: Protein kinase C gamma type (Homo sapiens) (UniProt P05129); conditions: at 1 µM
# [59] = molecular target: Protein kinase C epsilon type (Homo sapiens) (UniProt Q02156); conditions: at 10 µM
smiles,measurement,setting,value
O=Nc1c(-c2c(O)[nH]c3ccccc23)[nH]c2ccccc12,residual activity,[1],15%
O=C1NC(=O)C(c2cn(CCCO)c3ncccc23)=C1c1cnccn1,residual activity,[2],106%
same,residual activity,[1],105%
same,residual activity,[3],104%
same,residual activity,[4],101%
same,residual activity,[5],104%
same,residual activity,[6],111%
same,residual activity,[7],102%
same,residual activity,[8],101%
same,residual activity,[9],103%
same,residual activity,[10],109%
same,residual activity,[11],114%
same,residual activity,[12],inactive: 106%
same,residual activity,[13],105%
same,residual activity,[14],107%
same,residual activity,[15],113%
same,residual activity,[16],107%
same,residual activity,[17],110%
same,residual activity,[18],inactive: 108%
same,residual activity,[19],inactive: 99%
same,residual activity,[20],108%
same,residual activity,[21],104%
same,residual activity,[22],inactive: 102%
same,residual activity,[23],inactive: 108%
same,residual activity,[24],109%
same,residual activity,[25],103%
Cn1nc2c3c(cccc31)C(=O)c1ccccc1-2,residual activity,[1],110%
same,residual activity,[3],118%
same,residual activity,[26],120%
same,residual activity,[27],116%
same,residual activity,[28],114%
same,residual activity,[29],114%
same,residual activity,[30],116%
same,residual activity,[31],117%
same,residual activity,[32],115%
same,residual activity,[19],inactive: 99%
same,residual activity,[20],78%
same,residual activity,[33],117%
same,residual activity,[34],119%
O=C1Cc2c([nH]c3ccc([N+](=O)[O-])cc23)-c2ccccc2N1,residual activity,[35],15%
Cc1ccc(S(=O)(=O)/C=C/C#N)cc1,residual activity,[1],107%
same,residual activity,[3],94%
same,residual activity,[19],inactive: 102%
same,residual activity,[20],101%
O=C(c1cc2cc(O)ccc2[nH]1)c1cc2cc(O)ccc2[nH]1,residual activity,[36],98%
same,residual activity,[37],104%
same,residual activity,[38],88%
same,residual activity,[1],103%
same,residual activity,[3],82%
same,residual activity,[4],97%
same,residual activity,[39],inactive: 105%
same,residual activity,[40],96%
same,residual activity,[41],107%
same,residual activity,[42],101%
same,residual activity,[43],inactive: 92%
same,residual activity,[10],93%
same,residual activity,[44],87%
same,residual activity,[11],91%
same,residual activity,[45],91%
same,residual activity,[46],92%
same,residual activity,[27],97%
same,residual activity,[47],94%
same,residual activity,[48],94%
same,residual activity,[49],95%
same,residual activity,[50],96%
same,residual activity,[51],99%
same,residual activity,[52],86%
same,residual activity,[53],85%
same,residual activity,[19],inactive: 95%
same,residual activity,[20],82%
same,residual activity,[21],99%
same,residual activity,[54],98%
same,residual activity,[55],89%
same,residual activity,[24],102%
same,residual activity,[25],104%
same,residual activity,[56],93%
same,residual activity,[57],106%
same,residual activity,[58],101%
same,residual activity,[59],102%
Nc1cccc(-c2cc3c(Oc4cccc(O)c4)ncnc3[nH]2)c1,residual activity,[1],0%
same,residual activity,[3],-4%
